These results are taken from patent publication US11401278B2, “Macrocyclic indole derivatives” (The Broad Institute, Inc., priority 2017, dated 2022).

By UniProt entry, the sequences of proteins in these tests, tags left out. Chains listed by the source or under a name are the forms on record and can include a tag or linker. Residues count along the entry.
UniProt P10415, 1-211 with tags or gaps limits assumed: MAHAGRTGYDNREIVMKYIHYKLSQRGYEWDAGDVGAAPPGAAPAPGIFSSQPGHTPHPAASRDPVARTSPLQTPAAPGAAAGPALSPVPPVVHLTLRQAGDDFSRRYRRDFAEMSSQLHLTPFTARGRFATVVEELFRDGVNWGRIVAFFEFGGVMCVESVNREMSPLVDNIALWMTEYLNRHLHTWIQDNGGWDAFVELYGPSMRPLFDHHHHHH

The target of assay [1] is BCL-2 (Homo sapiens (Human), UniProt P10415). In words: Protein-protein interaction assay BCL-2/Bad BH3 peptide (BCL-2 assay, TR-FRET). It counts as binding. Conditions: read-out: BCL-2 Assay [M] (median) IC50, His-BCL-2 / Bad BH3 peptide. Here is the method: Assay 3 Protein-Protein Interaction Assay: BCL-2/Bad BH3 Peptide (BCL-2 Assay)
The dose-dependent inhibition by the compounds described in this invention of the interaction between BCL-2 and the BH3 domain of Bad (both human) was determined using a steady state binding competition assay with time-resolved fluorescence energy transfer (TR-FRET) readout. […]
In the assay 11 different concentrations of each compound (0.1 nM, 0.33 nM, 1.1 nM, 3.8 nM, 13 nM, 44 nM, 0.15 μM, 0.51 μM, 1.7 μM, 5.9 μM and 20 μM) were typically measured as duplicates in the same microtiter plate. […]
The mixture was incubated in the dark for one hour at 22° C. and then overnight at 4° C. The formation of BCL-2/Bad complexes was determined by measuring the resonance energy transfer of the anti-His-Eu-cryptate antibody to the streptavidin-XL665 present in the reaction. For that purpose, the fluorescence emission at 620 nm and 665 nm after excitation at 330-350 nm was measured in a TR-FRET measuring instrument, for instance a Rubystar or a Pherastar (both from BMG Lab Technologies, Offenburg, Germany) or a Viewlux (Perkin-Elmer). […]

In assay [2] the test system is SUDHL10. In words: Induction of caspase-3/7 activity (Assay 4), SUDHL10. Conditions: read-out: Caspase SUDHL10 [M] (median) EC50, caspase-3/7 induction, 3 hours. Here is the method:
Cellular Assays Assay 4 Induction of Caspase-3/7 Activity Upon Treatment of Cells with Selected Compounds
The BH3-domain of MCL-1 sequesters pro-apoptotic proteins, thereby inhibiting apoptosis. In contrast, MCL-1 inhibitors are expected to antagonize this effect leading to an increase in apoptosis, which can be determined by measuring the activity of caspase-3/7.
The activity of caspase-3/7 was determined in DLBCL (Diffuse large B-cell lymphoma) cell lines (SUDHL5 and SUDHL10) upon treatment with different compounds, using the Caspase-Glo® 3/7 reagent from Promega (G8092).
The different cell lines were plated in culture medium (RPMI 1640 [GIBCO #22400-089] supplemented with 10% Fetal Bovine Serum) at a density of 3,300 cells in 30 μl/well in a sterile, solid black, flat bottom, polystyrene, TC-treated 384-well microplate (Corning #3571) using Multidrop Combi Reagent Dispenser. […]
On the next day, the cells were treated with compounds (stock solution, 10 mM in DMSO) using the HP D300 Digital Dispenser in a concentration range of 3.3×10e-5 M (33 μM) to 5×10e-9 M (5 nM) in a single-dot curve with at least 16 dilutions and a DMSO concentration of 0.33%. […] Finally, luminescence was read at 0.1 ms, with a gain of 3000 using the PHERAstar FS microplate reader (BMG Labtech).
For the evaluation of the results, the background measured with “medium-only” was subtracted from all other values. […]

For `CCc1c2c(nn1C)CNS(=O)(=O)CCCn1c(C(=O)O)c(CCCOc3cccc4cc(F)ccc34)c3ccc(Cl)c-2c31`, the IC50 in assay [1] is more than 2e-05 M. The EC50 in assay [2] was found to be 1.7e-06 M.
